FGF22 binding: binders of recombinant human FGF22 by thermal shift; Q9HCT0; SYPRO orange fluorescence; percent of sucrose octasulfate shift, DMSO zero; activity (Tm shift, normalised), % at 9.99 µM; actives 1.5% (n = 340,000); AID 651658;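 active = mean Tm shift, scaled 0 neutral to 100 positive control, at about 1.3% or above, every replicate too, limit read from the data; inconclusive = no clear call, values can overlap the other calls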
SIRT5 inh: sirtuin-5 (human) deacylase inhibition; actives 1.1% (n = 330,000); Purified SirT5, succinyl-peptide AMC, trypsin-coupled fluorescence; inhibition, % at 15 µM; in the data active = inhibition above about 15%; inconclusive = no clear call, values can overlap the other calls
S100A4 MyoIIA: S100A4-myosin IIA interaction inhibition; P26447; actives 0.14% (n = 360,000); S100A4/TAMRA-MyoIIA peptide fluorescence polarization; inhibition, % at 10.7 µM;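 active = mean inhibition of at least 70% across replicates, with every replicate also reaching that level; inconclusive = mean inhibition reaches 70% but some replicates fall short; inactive = mean inhibition below 70%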
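Material: S100A4 monomer (human). Medium: Calcium-containing HEPES buffer, pH 7.2. Probe or stimulus: labelled myosin peptide probe, 5 nM. Compound dosing: one concentration per compound. Timing: polarization read 5 min after assay mix addition, stable 5–60 min. Benchmarks: DMSO as neutral control, TFP as positive control.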
UUG fidelity: modulators of yeast start codon fidelity, primary screen, whole organism, S. cerevisiae, single point, plate reader; S. cerevisiae UUG-firefly luciferase reporter, luminescence/redox ratio; activity score, % at 18.7 µM; 0.13% of 350,000 active; AID 602363, 2012;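 active = replicate mean at a twofold rise or more, about +100% in these data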;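 also: firefly luciferase made from a UUG start codon reports start codon fidelity; reporter light over untreated wells divided by growth signal over untreated wells; some hits fall short of that in this replicate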
PDI inh: inhibitors of human protein disulfide isomerase; actives 0.052% (n = 350,000); inhibition, % at 10 µM; P07237; PDI insulin aggregation turbidity, A650, 90 min;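 active = mean inhibition across replicates of 30% or more, whatever share of single replicates reach that level; inconclusive = mean inhibition below 30% while every single replicate reaches 30%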
ERp5 inh: inhibitors of human ERp5; Q15084; ERp5 insulin aggregation, absorbance 650 nm, 90 min; inhibition, % at 9.99 µM; actives 0.05% (n = 350,000); AID 651711;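 active = mean replicate inhibition above about 25%, with every replicate also reaching it, limit read from the data, passing the limit was not always enough; inconclusive = only one of those two criteria met; inactive = neither criterion met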
Numbers stand for hits. Shown are actives, neighbours in structure and some others; about 2.2% of the full set was active somewhere.

Results for COCC(=O)N1[C@H](CO)[C@@H](c2ccccc2)[C@@H]1CNC(=O)c1ccccn1 ?
FGF22 binding: inactive; SIRT5 inh: 15; S100A4 MyoIIA: inactive; UUG fidelity: inactive; ERp5 inh: inactive

What do the screens show for `CC(=O)N1[C@H](CO)[C@H](c2ccc(-c3ccncc3)cc2)[C@@H]1CNC(=O)CC1CC1`?
SIRT5 inh: 22; S100A4 MyoIIA: inactive; ERp5 inh: inactive

How did O=C(NC1CCC1)[C@H]1[C@H](CO)[C@H]2Cn3c(cccc3=O)[C@@H]1N2CC1CCCC1 do in these assays?
SIRT5 inh: inactive; S100A4 MyoIIA: inactive; ERp5 inh: inactive

Results for O=C(C[C@H]1CC[C@@H]2[C@H](COC[C@@H](O)CN2C(=O)Nc2ccc(Cl)c(Cl)c2)O1)NCc1ccncc1 ?
FGF22 binding: inactive; SIRT5 inh: inactive; S100A4 MyoIIA: inactive; ERp5 inh: inactive

How did CC1(C)CC(=O)C2=C(C1)OC1=C(C(=O)CC(C)(C)C1)C2c1ccc(O)cc1O do in these assays?
PDI inh: 77

What do the screens show for `CC1(C)CC(=O)C2=C(C1)OC1=C(C(=O)CC(C)(C)C1)C2c1ccc(O)c([N+](=O)[O-])c1`?
FGF22 binding: inactive; SIRT5 inh: inactive; S100A4 MyoIIA: inactive; PDI inh: inactive; ERp5 inh: inactive

Results for COc1cccc(C#Cc2ccc([C@H]3[C@@H](CO)N4C(=O)CN(C(=O)c5ccncc5)C[C@@H]34)cc2)c1 ?
SIRT5 inh: inactive; S100A4 MyoIIA: inactive; ERp5 inh: inactive

How did CC(C)C1C(=O)N(Cc2cn(Cc3ccco3)nn2)CCS(=O)(=O)N1Cc1ccc(-c2ccccc2)cc1 (stereo unspecified) do in these assays?
FGF22 binding: inactive; SIRT5 inh: inactive; S100A4 MyoIIA: inactive; UUG fidelity: inactive; PDI inh: inactive; ERp5 inh: inactive

How did CC(C)C1C(=O)N(Cc2cn(Cc3ccco3)nn2)CCS(=O)(=O)N1Cc1ccc(-c2ccc(F)cc2)cc1 (stereo unspecified) do in these assays?
FGF22 binding: inactive; SIRT5 inh: 25; S100A4 MyoIIA: inactive; UUG fidelity: inactive; PDI inh: inactive; ERp5 inh: inactive

What do the screens show for `Cc1csc(SCC(=O)Nc2ccccc2C)n1`?
FGF22 binding: inactive; SIRT5 inh: inactive; S100A4 MyoIIA: inactive; UUG fidelity: inactive; PDI inh: inactive; ERp5 inh: inactive

How did Cc1csc(SCC(=O)Nc2ccccc2[N+](=O)[O-])n1 do in these assays?
FGF22 binding: 44; SIRT5 inh: inactive; S100A4 MyoIIA: inactive; PDI inh: inactive; ERp5 inh: inactive

What do the screens show for `O=C1CNC[C@H]2[C@H](c3ccc(C#CC4CCCC4)cc3)[C@H](CO)N12`?
SIRT5 inh: inactive; S100A4 MyoIIA: inactive; ERp5 inh: inactive

How did O=C(NC(Cc1ccc(O)cc1)C(=O)N=Nc1c(O)[nH]c2ccccc12)c1ccccc1 (stereo unspecified) do in these assays?
FGF22 binding: inactive; SIRT5 inh: inactive; S100A4 MyoIIA: inactive; PDI inh: 45; ERp5 inh: inactive

Results for O=C(CNC(=O)Cc1ccccc1)N=Nc1c(O)[nH]c2ccccc12 ?
FGF22 binding: inactive; SIRT5 inh: inactive; S100A4 MyoIIA: inactive; UUG fidelity: inactive; PDI inh: inactive; ERp5 inh: inactive

How did O=C(NCC[C@H]1CC[C@@H](NS(=O)(=O)c2ccccc2)[C@H](CO)O1)c1ccccc1F do in these assays?
FGF22 binding: inactive; SIRT5 inh: inactive; S100A4 MyoIIA: inactive; UUG fidelity: inactive; ERp5 inh: inactive

Results for COc1ccc(CNC(=O)C[C@H]2C[C@H]3c4cc(NS(=O)(=O)c5ccc(F)cc5)ccc4O[C@H]3[C@H](CO)O2)cc1 ?
FGF22 binding: inactive; SIRT5 inh: inactive; S100A4 MyoIIA: inactive; UUG fidelity: inactive; ERp5 inh: inactive

What do the screens show for `O=[N+]([O-])c1ccc2[nH]c(O)c(N=Nc3ccc(F)cc3)c2c1`?
FGF22 binding: inactive; SIRT5 inh: inactive; S100A4 MyoIIA: inactive; UUG fidelity: inactive; PDI inh: inactive; ERp5 inh: inactive

Results for O=[N+]([O-])c1ccc2[nH]c(O)c(N=NC3CCS(=O)(=O)C3)c2c1 (stereo unspecified) ?
FGF22 binding: inactive; SIRT5 inh: 25; S100A4 MyoIIA: inactive; UUG fidelity: inactive; PDI inh: inactive; ERp5 inh: inactive

What do the screens show for `CCOC(=O)C1(Cc2ccc(Cl)cc2)CCN(C(=O)c2sc(C)nc2C)CC1`?
FGF22 binding: inactive; SIRT5 inh: inactive; S100A4 MyoIIA: inactive; PDI inh: inactive; ERp5 inh: inconclusive

What do the screens show for `CCOC(=O)C1(CC2CC2)CCN(C(=O)c2cc(C)nc3ccc(CC)cc23)CC1`?
FGF22 binding: 44; SIRT5 inh: inactive; S100A4 MyoIIA: inactive; PDI inh: inactive; ERp5 inh: inactive

Results for CCOC(=O)C1(Cc2ccc(Cl)cc2)CCN(C(=O)c2cc(C)nc(C)n2)CC1 ?
FGF22 binding: 43; SIRT5 inh: inactive; S100A4 MyoIIA: inactive; UUG fidelity: inactive; PDI inh: inactive; ERp5 inh: inactive

What do the screens show for `CCOC(=O)C(C)OC(=O)C1=C(C)NC(=O)NC1c1ccc2c(c1)OCO2` (stereo unspecified)?
FGF22 binding: inactive; SIRT5 inh: 20; S100A4 MyoIIA: inactive; UUG fidelity: inactive; PDI inh: inactive; ERp5 inh: inactive

What do the screens show for `CCCCCOC(=O)C1=C(C)NC(=O)NC1c1ccc2c(c1)OCO2` (stereo unspecified)?
FGF22 binding: inactive; S100A4 MyoIIA: inactive; UUG fidelity: inactive; PDI inh: inactive; ERp5 inh: inactive

Results for COCC(=O)Nc1ccc2c(c1)C(=O)N(C)C[C@@H](OC)[C@@H](C)CN(Cc1ccccc1)[C@@H](C)CO2 ?
FGF22 binding: inactive; SIRT5 inh: inactive; S100A4 MyoIIA: inactive; UUG fidelity: inactive; ERp5 inh: inactive

What do the screens show for `O=C(CSc1nc2ccccc2[nH]1)Nc1ccc(F)cc1`?
FGF22 binding: inactive; SIRT5 inh: inactive; S100A4 MyoIIA: inactive; UUG fidelity: inactive; PDI inh: inactive; ERp5 inh: inactive

How did O=C(CSc1nc2ccccc2[nH]1)NCc1ccc(F)cc1 do in these assays?
FGF22 binding: 43; SIRT5 inh: inactive; S100A4 MyoIIA: inactive; UUG fidelity: inactive; PDI inh: inactive; ERp5 inh: inactive

Results for C[C@@H]1CN([C@@H](C)CO)C(=O)Cc2cc(NS(=O)(=O)c3ccc(F)cc3)ccc2O[C@@H]1CN(C)S(=O)(=O)c1cn(C)cn1 ?
FGF22 binding: inactive; SIRT5 inh: inactive; S100A4 MyoIIA: inactive; UUG fidelity: inactive; ERp5 inh: inactive

Results for O=c1c(Cc2ccc(F)cc2)c(O)ccn1CCc1cnc[nH]1 ?
FGF22 binding: 43; SIRT5 inh: inactive; S100A4 MyoIIA: inactive; PDI inh: inactive; ERp5 inh: inactive

Results for COc1ccc(N=C2NC(=O)/C(=C\C=C\c3ccccc3)S2)cc1 ?
FGF22 binding: 44; SIRT5 inh: inactive; S100A4 MyoIIA: inactive; UUG fidelity: inactive; PDI inh: inactive; ERp5 inh: inactive

Source: PubChem BioAssay (Broad Institute)
